Measured values reported in PMC11169557, “The Goldilocks paradigm: comparing classical machine learning, large language models, and few-shot learning for drug discovery applications” (Communications Chemistry, 2024).

Amino acid sequences for entries named in this document (tags omitted). A change or cut given only in a name is not applied to a line headed by its entry.
UniProt Q9P0L2: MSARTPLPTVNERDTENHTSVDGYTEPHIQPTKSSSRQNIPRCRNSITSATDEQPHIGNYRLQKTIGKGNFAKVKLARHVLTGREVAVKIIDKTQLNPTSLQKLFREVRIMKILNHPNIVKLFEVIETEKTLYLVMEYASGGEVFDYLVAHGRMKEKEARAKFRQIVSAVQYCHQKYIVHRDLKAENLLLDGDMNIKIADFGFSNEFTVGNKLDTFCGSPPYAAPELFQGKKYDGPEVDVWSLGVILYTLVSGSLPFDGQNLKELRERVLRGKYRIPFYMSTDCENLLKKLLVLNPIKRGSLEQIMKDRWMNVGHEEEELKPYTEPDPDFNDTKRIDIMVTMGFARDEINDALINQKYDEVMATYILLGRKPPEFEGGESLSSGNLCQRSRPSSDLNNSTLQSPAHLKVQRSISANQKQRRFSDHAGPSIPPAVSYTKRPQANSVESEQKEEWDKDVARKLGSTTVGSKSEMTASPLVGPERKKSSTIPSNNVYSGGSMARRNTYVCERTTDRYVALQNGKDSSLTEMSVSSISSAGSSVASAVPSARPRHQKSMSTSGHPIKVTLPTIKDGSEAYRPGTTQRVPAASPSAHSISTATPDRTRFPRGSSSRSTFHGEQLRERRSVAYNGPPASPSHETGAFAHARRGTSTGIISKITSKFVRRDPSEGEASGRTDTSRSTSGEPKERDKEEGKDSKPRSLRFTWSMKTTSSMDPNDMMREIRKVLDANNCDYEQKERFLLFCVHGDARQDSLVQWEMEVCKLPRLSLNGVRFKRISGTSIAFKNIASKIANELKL

Biological target: MARK1 (Homo sapiens, UniProt Q9P0L2)
Assay: MARK1 inhibition, IC50 determination (dose-response) using Z'-LYTE assay
Details: hits of the initial screen followed up with dose-response curves; 1 = true MARK1 inhibitor

CN(C)C[C@@H]1CCn2cc(c3ccccc32)C2=C(C(=O)NC2=O)c2cn(c3ccccc23)CCO1.Cl [ruboxistaurin HCl]
Active (Measured): 0
